{
  "source": "patent US9611261B2",
  "about": "(AMGEN INC., priority 2013, dated 2017)",
  "note": "Structures can show the parent of a compound that is named as a salt.",
  "data": [
    {"test_system": "Aβ 40 in conditioned medium of cells stably expressing Amyloid Precursor Protein (APP)", "experiment": "In vitro BACE cell-based assay (Aβ 40 sandwich ELISA of conditioned medium)", "conditions": "read-out: BACE cell assay IC50", "units": {"IC50": "nM"}, "values": [
      {"compound": "NC1=N[C@@](CF)(c2cc(NC(=O)c3ccc(Cl)cn3)ccc2Cl)[C@@H]2CC2O1", "note": "(mixture of isomers) [Example 276, N-(3-(((1R,S), (5S,R), (6R,S))-3-amino-5-(fluoromethyl)-2-oxa-4-azabicyclo[4.1.0]hept-3-en-5-yl)-4-chlorophenyl)-5-chloropicolinamide]", "IC50": 24.2},
      {"compound": "N#Cc1ccc2c(c1)OCC[C@@H]2Nc1ccc(F)c([C@@]2(C(F)F)N=C(N)O[C@@H]3C[C@@H]32)c1", "note": "(mixture of isomers) [Example 383, (R)-4-((3-((1R,5S,6R)-3-amino-5-(difluoromethyl)-2-oxa-4-azabicyclo[4.1.0]hept-3-en-5-yl)-4-fluorophenyl)amino)chroman-7-carbonitrile and (S)-4-((3-((1R,5S,6R)-3-amino-5-(difluoromethyl)-2-oxa-4-azabicyclo[4.1.0]hept-3-en-5-yl)-4-fluorophenyl)amino)chroman-7-carbonitrile]", "IC50": 352},
      {"compound": "N#Cc1cnc2c(c1)CCC[C@@H]2Nc1ccc(F)c([C@@]2(C(F)F)N=C(N)O[C@@H]3C[C@@H]32)c1", "note": "(mixture of isomers) [Example 403, (R)-8-((3-((1R,5S,6R)-3-amino-5-(difluoromethyl)-2-oxa-4-azabicyclo[4.1.0]hept-3-en-5-yl)-4-fluorophenyl)amino)-5,6,7,8-tetrahydroquinoline-3-carbonitrile and (S)-8-((3-((1R,5S,6R)-3-amino-5-(difluoromethyl)-2-oxa-4-azabicyclo[4.1.0]hept-3-en-5-yl)-4-fluorophenyl)amino)-5,6,7,8-tetrahydroquinoline-3-carbonitrile]", "IC50": 677},
      {"compound": "Cc1cc(C#N)cnc1C(=O)Nc1cc(F)c(Cl)c([C@]2(CF)N=C(N)O[C@H]3C[C@H]32)c1", "note": "(racemic) [Example 137, N-(3-((1R/S,5S/R,6R/S)-3-amino-5-(fluoromethyl)-2-oxa-4-azabicyclo[4.1.0]hept-3-en-5-yl)-4-chloro-5-fluorophenyl)-5-cyano-3-methylpicolinamide]", "IC50": 16.2},
      {"compound": "C#CCOc1cnc(C(=O)Nc2cc(F)c(Cl)c([C@]3(CF)N=C(N)O[C@H]4C[C@H]43)c2)cn1", "note": "(racemic) [Example 140, N-(3-((1R/S,5S/R,6R/S)-3-amino-5-(fluoromethyl)-2-oxa-4-azabicyclo[4.1.0]hept-3-en-5-yl)-4-chloro-5-fluorophenyl)-5-(prop-2-yn-1-yloxy)pyrazine-2-carboxamide]", "IC50": 5.9},
      {"compound": "NC1=N[C@](c2cc(NC(=O)c3nn(C(F)F)cc3Cl)ccc2Cl)(C(F)F)[C@@H]2C[C@@H]2O1", "note": "(racemic) [Example 220, N-(3-((1(R,S),5(S,R),6(R,S))-3-amino-5-(difluoromethyl)-2-oxa-4-azabicyclo[4.1.0]hept-3-en-5-yl)-4-chlorophenyl)-4-chloro-1-(difluoromethyl)-1H-pyrazole-3-carboxamide]", "IC50": 16.9},
      {"compound": "Cc1cc(C#N)cnc1C(=O)Nc1cc(F)c(Cl)c([C@]2(CF)N=C(N)O[C@H]3C[C@H]32)c1", "note": "[Example 139, N-(3-((1S,5R,6S)-3-amino-5-(fluoromethyl)-2-oxa-4-azabicyclo[4.1.0]hept-3-en-5-yl)-4-chloro-5-fluorophenyl)-5-cyano-3-methylpicolinamide]", "IC50": 2240},
      {"compound": "NC1=N[C@](c2cc(NC(=O)c3nn(C(F)F)cc3Cl)ccc2Cl)(C(F)F)[C@@H]2C[C@@H]2O1", "note": "[Example 225, N-(3-((1S,5R,6S)-3-amino-5-(difluoromethyl)-2-oxa-4-azabicyclo[4.1.0]hept-3-en-5-yl)-4-chlorophenyl)-4-chloro-1-(difluoromethyl)-1H-pyrazole-3-carboxamide]", "IC50": 3820},
      {"compound": "NC1=N[C@@](c2cccc(NC(=O)c3ccc(Cl)cn3)c2)(C(F)F)[C@H]2C[C@H]2O1", "note": "[Example 263, N-(3-([(1R,S),(5S,R),(6R,S)]-3-amino-5-(difluoromethyl)-2-oxa-4-azabicyclo[4.1.0]hept-3-en-5-yl)phenyl)-5-chloropicolinamide]", "IC50": 289},
      {"compound": "NC1=N[C@@](c2cccc(NC(=O)c3ccc(Cl)cn3)c2)(C(F)F)[C@H]2C[C@H]2O1", "note": "[Example 265, N-(3-((1R,5S,6R)-3-amino-5-(difluoromethyl)-2-oxa-4-azabicyclo[4.1.0]hept-3-en-5-yl)phenyl)-5-chloropicolinamide]", "IC50": 27.9},
      {"compound": "NC1=N[C@@](CF)(c2cc(NC(=O)c3ccc(Cl)cn3)ccc2Cl)[C@@H]2C[C@@H]2O1", "note": "[Example 271, N-(3-((1S,5R,6S)-3-amino-5-(fluoromethyl)-2-oxa-4-azabicyclo[4.1.0]hept-3-en-5-yl)-4-chlorophenyl)-5-chloropicolinamide]", "IC50": 2330},
      {"compound": "N#Cc1cnc2c(Nc3ccc(Cl)c([C@]4(C(F)F)N=C(N)O[C@H]5C[C@H]54)c3)ncc(F)c2c1", "note": "[Example 349, 8-((3-((1(R,S),5(S,R),6(R,S))-3-amino-5-(difluoromethyl)-2-oxa-4-azabicyclo[4.1.0]hept-3-en-5-yl)-4-chlorophenyl)amino)-5-fluoro-1,7-naphthyridine-3-carbonitrile]", "IC50": 222},
      {"compound": "N#Cc1cnc2c(Nc3ccc(Cl)c([C@]4(C(F)F)N=C(N)O[C@H]5C[C@H]54)c3)ncc(F)c2c1", "note": "[Example 351, 8-((3-((1S,5R,6S)-3-amino-5-(difluoromethyl)-2-oxa-4-azabicyclo[4.1.0]hept-3-en-5-yl)-4-chlorophenyl)amino)-5-fluoro-1,7-naphthyridine-3-carbonitrile]", "IC50": 2520},
      {"compound": "COc1cnc2c(Nc3cc(Cl)c(F)c([C@@]4(CF)N=C(N)O[C@@H]5C[C@@H]54)c3)nccc2n1", "note": "[Example 356, (1R,5S,6R)-5-(3-chloro-2-fluoro-5-((2-methoxypyrido[3,4-b]pyrazin-5-yl)amino)phenyl)-5-(fluoromethyl)-2-oxa-4-azabicyclo[4.1.0]hept-3-en-3-amine]", "IC50": 49.4},
      {"compound": "N#Cc1cnc2c(c1)CC[C@@H]2Nc1ccc(F)c([C@@]2(C(F)F)N=C(N)O[C@@H]3C[C@@H]32)c1", "note": "[Example 404]", "IC50": 252},
      {"compound": "NC1=N[C@](c2cc(-c3nc4ccc(Cl)cc4o3)ccc2F)(C(F)F)[C@@H]2C[C@@H]2O1", "note": "[Example 425, (1S,5R,6S)-5-(5-(6-chlorobenzo[d]oxazol-2-yl)-2-fluorophenyl)-5-(difluoromethyl)-2-oxa-4-azabicyclo[4.1.0]hept-3-en-3-amine]", "IC50": 590},
      {"compound": "NC1=N[C@@](c2cc(-c3nc4ccc(Cl)cc4o3)ccc2F)(C(F)F)[C@H]2C[C@H]2O1", "note": "[Example 426, (1R,5S,6R)-5-(5-(6-chlorobenzo[d]oxazol-2-yl)-2-fluorophenyl)-5-(difluoromethyl)-2-oxa-4-azabicyclo[4.1.0]hept-3-en-3-amine]", "IC50": 3100},
      {"compound": "NC1=N[C@@](c2cc(-n3cc(C#CC4CC4)cn3)ccc2F)(C(F)F)[C@H]2C[C@H]2O1", "note": "[Example 435]", "IC50": 4790},
      {"compound": "CNc1cnc(C(=O)Nc2ccc(F)c([C@@]3(C(F)F)N=C(N)O[C@@H]4C[C@@H]43)c2)nc1", "note": "[Example 439, N-(3-((1R,5S,6R)-3-amino-5-(difluoromethyl)-2-oxa-4-azabicyclo[4.1.0]hept-3-en-5-yl)-4-fluorophenyl)-5-(methylamino)pyrimidine-2-carboxamide dihydrochloride]", "IC50": 320},
      {"compound": "Cc1cc(NC(=O)c2ccc(Cl)cc2CF)cc([C@@]2(C(F)F)N=C(N)O[C@@H]3C[C@@H]32)c1F", "note": "[Example 444, N-(3-((1R,5S,6R)-3-amino-5-(difluoromethyl)-2-oxa-4-azabicyclo[4.1.0]hept-3-en-5-yl)-4-fluoro-5-methylphenyl)-4-chloro-2-(fluoromethyl)benzamide]", "IC50": 31.3}
    ]}
  ]
}
